Laboratory results taken from patent US10968215B2 (SHANGHAI HAIHE PHARMACEUTICAL CO., LTD., priority 2016, dated 2021).
Where two headings read alike, the source gives them in different places.

Protein sequences, listed by entry. Tags and fused reporters are not part of them.
UniProt Q15910, whole entry Y641F: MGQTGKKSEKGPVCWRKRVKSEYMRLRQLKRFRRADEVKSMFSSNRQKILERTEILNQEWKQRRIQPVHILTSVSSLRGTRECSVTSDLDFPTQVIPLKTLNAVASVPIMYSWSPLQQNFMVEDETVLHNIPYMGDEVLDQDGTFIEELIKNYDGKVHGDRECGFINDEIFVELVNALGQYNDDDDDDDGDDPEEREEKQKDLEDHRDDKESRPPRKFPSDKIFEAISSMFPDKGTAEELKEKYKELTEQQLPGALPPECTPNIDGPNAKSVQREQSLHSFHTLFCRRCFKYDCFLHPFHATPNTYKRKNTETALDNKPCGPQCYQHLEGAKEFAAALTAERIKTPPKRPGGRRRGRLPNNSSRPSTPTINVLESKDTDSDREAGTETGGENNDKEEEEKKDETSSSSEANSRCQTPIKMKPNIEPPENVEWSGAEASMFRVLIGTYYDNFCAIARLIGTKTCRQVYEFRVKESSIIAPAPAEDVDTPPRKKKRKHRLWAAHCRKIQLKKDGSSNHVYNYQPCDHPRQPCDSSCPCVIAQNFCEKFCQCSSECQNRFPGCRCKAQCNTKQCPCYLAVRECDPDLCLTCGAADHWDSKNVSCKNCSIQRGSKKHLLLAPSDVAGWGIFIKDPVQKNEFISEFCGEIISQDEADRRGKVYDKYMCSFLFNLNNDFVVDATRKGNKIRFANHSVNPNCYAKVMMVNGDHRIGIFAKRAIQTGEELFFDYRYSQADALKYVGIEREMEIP
UniProt Q15910, whole entry: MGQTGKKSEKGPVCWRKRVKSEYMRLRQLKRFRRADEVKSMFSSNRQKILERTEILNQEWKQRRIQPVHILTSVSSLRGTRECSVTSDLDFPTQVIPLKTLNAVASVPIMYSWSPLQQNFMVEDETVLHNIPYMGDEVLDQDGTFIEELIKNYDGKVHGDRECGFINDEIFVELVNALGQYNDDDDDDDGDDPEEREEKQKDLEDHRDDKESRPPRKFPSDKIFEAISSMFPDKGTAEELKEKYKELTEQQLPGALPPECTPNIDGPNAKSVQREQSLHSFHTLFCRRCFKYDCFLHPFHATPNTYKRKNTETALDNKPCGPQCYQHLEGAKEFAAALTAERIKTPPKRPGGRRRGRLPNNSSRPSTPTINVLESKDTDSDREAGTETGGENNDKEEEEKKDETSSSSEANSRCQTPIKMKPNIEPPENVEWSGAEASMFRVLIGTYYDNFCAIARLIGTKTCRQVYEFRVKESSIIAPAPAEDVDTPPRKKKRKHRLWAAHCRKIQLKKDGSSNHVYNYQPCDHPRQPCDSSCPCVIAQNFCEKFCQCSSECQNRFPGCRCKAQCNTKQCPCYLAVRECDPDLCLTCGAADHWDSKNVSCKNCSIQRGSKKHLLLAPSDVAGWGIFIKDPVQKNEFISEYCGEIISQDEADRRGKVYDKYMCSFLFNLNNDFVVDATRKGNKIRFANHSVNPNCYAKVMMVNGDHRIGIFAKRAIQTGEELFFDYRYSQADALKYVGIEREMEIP

Columns and labels:
[1] = biological target: PRC2 complex (EZH2 Y641F/EED/SUZ12/RbAp48/AEBP2) (Homo sapiens (Human), UniProt Q15910, Y641F); assay: Activity of a compound to PRC2 complex (EZH2 Y641F), HTRF
[2] = biological target: PRC2 complex (EZH2/EED/SUZ12/RbAp48/AEBP2) (Homo sapiens (Human), UniProt Q15910); assay: Activity of a compound to PRC2 complex (EZH2 wild type), ELISA; assay type: biochemical; settings: class symbols
Description: 2. Determination of the Activity of a Compound to PRC2 Complex (EZH2 Wild Type):
Detection Method: Enzyme-Linked Immunosorbent Assay (ELISA)
MATERIALS: The PRC2 complex (EZH2/EED/SUZ12/RbAp48/AEBP2) histone methyltransferase was purchased from BPS; the substrate Biotin H3 (21-44) me0 was produced by AnaSpec; SAM was purchased from Sigma, which is GL Biochem product; methyl donor SAM was purchased from Sigma-aldrich; H3K27me3 antibody was purchased from BPS.
Experimental method: avdin of a final concentration of 100 nM was used to coat 96-well plate at 10 μL/well, placed in a wet box and shaken overnight, and then 100 μL 3% BSA per well was added and blocked for 1 h at room temperature. PRC2 complex (EZH2/EED/SUZ12/RbAp48/AEBP2), H3 (21-44) me0 substrate, methyl donor SAM and compound were added into each well of the blocked 96-well plate. The total reaction system was 100 μL, placed in a wet box and allowed to react for 1 h on shaker at room temperature. The plate was washed with TBS-T [20 mM Tris-HCl (pH 7.2-7.4, room temperature), 150 mM NaCl, 0.1% (v/v) Tween-20] for 3 times, blocked with 3% BSA for 10 min, and anti-H3K27me3 antibody was added and incubated for 1 h in a wet box on shaker at room temperature. […] The plate was read by a plate reader at 490 nm and IC50 of the compound was calculated using SoftMax Pro 5.4.1 software.

Row | IC50 ([1]; read-out: IC50 (EZH2_Y641F), EZH2 Y641F PRC2 complex, HTRF, class symbols) | IC50 [2] | SMILES | IC50 [1]
1 | 100 to 1000 nM | < 100 nM | COc1cc(C)[nH]c(=O)c1CNC(=O)c1cc2c(-c3ccn[nH]3)ccn2c([C@H](C)N2CCN(CC(F)(F)F)CC2)c1C (single isomer, unassigned) [Compound 155, (S)—N-((4-methoxy-6-methyl-2-oxo-1,2-dihydropyridin-3-yl)methyl)-6-methyl-1-(1H-pyrazol-5-yl)-5-(1-(4-(2,2,2-trifluoroethyl)piperazin-1-yl)ethyl)indolizine-7-carboxamide or (R)—N-((4-methoxy-6-methyl-2-oxo-1,2-dihydropyridin-3-yl)methyl)-6-methyl-1-(1H-pyrazol-5-yl)-5-(1-(4-(2,2,2-trifluoroethyl)piperazin-1-yl)ethyl)indolizine-7-carboxamide] | 
2 |  | < 100 nM | COc1cc(C)[nH]c(=O)c1CNC(=O)c1cc2c(-c3ccn[nH]3)ccn2c(C(C)N2CCN(CC(F)(F)F)CC2)c1C (stereo not shown) [Compound 154, N-((4-methoxy-6-methyl-2-oxo-1,2-dihydropyridin-3-yl)methyl)-6-methyl-1-(1H-pyrazol-5-yl)-5-(1-(4-(2,2,2-trifluoroethyl)piperazin-1-yl)ethyl)indolizine-7-carboxamide] | 
3 |  |  | Cc1cc(C)c(CNC(=O)c2cc3cc(Br)cn3c(C(C)N3CCOCC3)c2C)c(=O)[nH]1 (stereo not shown) [Example 29, 2-bromo-N-((4,6-dimethyl-2-oxo-1,2-dihydropyridin-3-yl)methyl)-6-methyl-5-(1-morpholinylethyl)indolizine-7-carboxamide] | < 100 nM
